# Binding of CDR-mutated scFvs to a peptide of the spike HR2 region

Target peptide (SARS-CoV-2 spike, HR2 region): PDVDLGDISGINAS

Each scFv is VH, a 15-residue (Gly4Ser)3 linker, VL, as in the parent Ab-14, and differs from it in the CDRs of the heavy chain only.
VH: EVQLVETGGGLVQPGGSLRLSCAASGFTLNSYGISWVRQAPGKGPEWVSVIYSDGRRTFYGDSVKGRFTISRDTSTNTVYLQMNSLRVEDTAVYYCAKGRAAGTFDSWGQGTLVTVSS
VL: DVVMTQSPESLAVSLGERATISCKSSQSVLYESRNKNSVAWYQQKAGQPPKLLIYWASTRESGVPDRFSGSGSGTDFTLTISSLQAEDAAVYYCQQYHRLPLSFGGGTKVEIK

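This is the validation round: designs drawn from the data on random variants, tested in the same kind of assay. Several design methods are mixed in this list. The assay is AlphaSeq: two haploid yeast populations carry antibody and antigen on their surface. Binding brings cells together so that they mate, and sequencing counts the barcode pairs among the diploids. The ratio of observed to expected reads was calibrated, replicate by replicate, on BCL2-family standards whose Kd was known from biolayer interferometry. The assay was run in six technical replicates.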

The parent's heavy chain CDRs are GFTLNSYGIS, VIYSDGRRTFYGDSVK, GRAAGTFDS; each variant's own CDRs replace them letter for letter.
Scale: log10 of Kd in nM, estimated from mating counts; low values are strong binders.
Averages over replicates are reported, and they cover detected replicates only.
A pair that was not seen in that replicate is written "n.d."; this usually means weak binding, but a binder can also be missed.

CDR-H1	CDR-H2	CDR-H3	log10 Kd, replicates	mean log10 Kd (nM)
GFDLDEYGIS	VIYADGVRTAYADSVK	GNTAGTFDI	-0.11 / -0.65 / -0.58 / -1.00 / -0.59 / -0.46	-0.57
GFNLNEYGIS	VIYADGRRTFYADSVK	GGFAGTFDV	-0.33 / -0.34 / -0.48 / -0.26 / -0.07 / -0.43	-0.32
GFTLNSYGIS	VIYSDGRRTFSHDSVK	WRAAGTFDS	n.d. / n.d. / n.d. / n.d. / n.d. / n.d.	n.d.
GFDLGEYGIS	VIYADGSRKAYATSFK	GGSGYKDGV	n.d. / n.d. / n.d. / n.d. / n.d. / n.d.	n.d.
GFELNSYGIS	VIYSDGRRTFYGDSVK	GKNAGTFDS	1.03 / 0.43 / 0.20 / 0.76 / 0.87 / 0.47	0.62
GFELNSYGIS	VIYSDGRRTFYGDSVK	GKEAGTFDT	0.06 / -0.31 / -0.44 / 0.15 / -0.35 / -0.12	-0.17
GFTLNEYGIS	VIYSDGRRTMYTDSVK	GRSAGTFDS	1.27 / 1.70 / 1.15 / 2.21 / 0.97 / 1.36	1.44
GFTLNSYGIS	VIYSDGRRTFYTDSVK	GGAPGTFDY	0.97 / n.d. / n.d. / n.d. / 1.58 / n.d.	1.27
GFDLNEYGIS	VIYADGMRVRVANNFK	GKLNTTGIV	n.d. / n.d. / n.d. / n.d. / n.d. / n.d.	n.d.
GFDLNEYGIS	VIYADGVRTVYADSVK	GENAGTFDV	-0.08 / -0.05 / 0.68 / 0.16 / -0.25 / 0.19	0.11
GFDLDEYGIS	VIYADGRRTAYTDSVK	GNVAGTFDV	-0.48 / -0.32 / -0.65 / -0.99 / -0.67 / -0.57	-0.61
GFTLNDYGIS	VIYSDGRRTFYGDSVK	GRAAGTFDV	1.36 / 0.62 / 0.73 / 0.93 / 0.41 / 1.60	0.94
HFDLNSYGIS	VIYSDGRRTFYGDSVK	GRTAGTFDS	0.87 / 1.21 / n.d. / 1.26 / n.d. / 2.41	1.44
GFTLNSYGIS	VIYSDGRRTQYSDQSK	GRAAGTFDS	n.d. / 1.65 / n.d. / n.d. / n.d. / n.d.	1.65
GFNLNNYGIS	VIYSDGRRTFYGDSVK	GQAAGTFDS	n.d. / n.d. / n.d. / n.d. / n.d. / n.d.	n.d.
GFDLDEYGIS	VIYADGMRTAYSDSVK	GTNAGTFDT	-0.45 / -0.65 / 0.56 / -0.27 / -0.56 / -0.81	-0.36
GFNLDEYGIS	VIYADGIRAAYKDKVK	GDDILLGWD	n.d. / n.d. / n.d. / n.d. / n.d. / n.d.	n.d.
GFTLESYGIS	VIYSDGRRTFYGDSVK	GRARGTFIS	n.d. / n.d. / n.d. / n.d. / n.d. / n.d.	n.d.
GFELQEYGIS	VIYADGMRTAVSDNVK	GDNRGIFHM	n.d. / n.d. / n.d. / n.d. / n.d. / n.d.	n.d.
GFDLNSYGIS	VIYSDGRRTFYTDSVK	GWAAGTFDS	-0.04 / 0.45 / 0.22 / 0.98 / -0.03 / 1.16	0.45
GFTLNSYGIS	VIYADGRRTFYGDSVK	GKAAGTFKL	1.48 / n.d. / 1.63 / n.d. / n.d. / n.d.	1.56
GFDLNEYGIS	VIYADGRRTQYIDSVK	GEGAGTFDT	0.08 / -0.20 / 0.30 / 0.14 / 0.85 / 0.17	0.22
GFQLNTYGIS	VIYSDGRRTFYVDSVK	GKAAGTFDS	n.d. / n.d. / 1.23 / 1.47 / n.d. / n.d.	1.35
GDVLDEYGIS	VIYADGRRTFYAQDVK	GGKAGSLSV	n.d. / n.d. / n.d. / 1.94 / n.d. / n.d.	1.94
GFSLNEYGIS	VIYSDGRRTFYIDSVK	GRHAGTFDS	0.67 / 0.46 / 0.24 / 0.27 / 0.42 / 0.47	0.42
GFDLDEYGIS	VIYADGMRTAYIDSVK	GETAGTFDV	-0.56 / -0.49 / -0.54 / -0.94 / -0.83 / -0.92	-0.71
GFDLNEYGIS	VIYADGRRTFYADSVK	GEVAGTFVQ	-0.51 / -0.13 / -0.55 / -0.13 / -0.13 / 0.21	-0.21
KFSLESYGIS	VIYSDGRRTFYGDSVK	GWTAGTFDS	n.d. / n.d. / n.d. / n.d. / 1.43 / 1.37	1.40
GFDLNEYGIS	VIYADGRRTQYIDSVK	GNEAGTFDY	-0.60 / -0.72 / -0.63 / -0.35 / -0.35 / -0.62	-0.54
GFDLTEYGIS	VIYADGRRTAYQDSVK	GLNEGMLVV	0.56 / 1.53 / 1.89 / n.d. / 1.71 / 1.22	1.38
GFDLNSYGIS	VIYSDGRRTFYIDSVK	GKAAGTFDQ	0.44 / -0.07 / 0.49 / -0.13 / 0.10 / 0.15	0.16
GFDLNEYGIS	VIYADGMRTAYANSVK	GEVAGTFDM	-0.55 / -0.58 / -0.36 / -1.56 / -1.17 / -1.25	-0.91
GFALNSYGIS	VIYSDGRRTFYGDSVK	GRAAGDFDS	n.d. / n.d. / n.d. / n.d. / n.d. / n.d.	n.d.
GFTLNQYGIS	VIYEDGRRTFYSDSVK	GRAAGFKDS	n.d. / n.d. / n.d. / n.d. / n.d. / n.d.	n.d.
GFTLNSYGIS	VIYSDGRRTFYADRVK	GEAAGTFDS	1.64 / n.d. / n.d. / n.d. / 1.80 / 1.56	1.67
GFDLNSYGIS	VIYSDGRRTFYGDQVK	GREAGTFDT	1.56 / n.d. / 1.02 / 1.71 / 1.36 / 1.46	1.42
GEDLEEYGIS	VIYADGMRQYYVNSVK	GTSNDFDML	n.d. / n.d. / n.d. / n.d. / n.d. / 3.20	3.20
GFDLGEYGVS	VIYADGTRAQYASKVK	GNFSGNITV	n.d. / n.d. / n.d. / n.d. / n.d. / n.d.	n.d.
GFQLNSYGIS	VIYADGRRTFYGDSVK	GQAAGTFDS	0.75 / 0.74 / 0.39 / 0.42 / 0.68 / 0.47	0.58
GFDLNEYGIS	VIYADGMRTAYQDSVK	GNTAGTFDV	-0.60 / -0.67 / -0.54 / -0.93 / -0.58 / -0.69	-0.67
GFDLNEYGIS	VIYADGRRTAYADDVK	GETAGTFDQ	-0.26 / -0.22 / -0.45 / -0.52 / -0.70 / -0.59	-0.46
GFTLNSYGIS	VIYSDGRRTFYGDSVK	GEFAGTFDS	n.d. / n.d. / n.d. / n.d. / n.d. / n.d.	n.d.
GFTLNMYGIS	VIYSDGKRTEYGDSVK	GRAAGCFCQ	n.d. / n.d. / n.d. / n.d. / n.d. / n.d.	n.d.
GFTLNSYGIS	VIYSDGERTHYGDSVV	GRAAGTFDS	n.d. / n.d. / n.d. / n.d. / n.d. / 1.94	1.94
GFSLNDYGIS	VIYSDGRRTFYGDDVK	GRQAGTFDS	0.33 / -0.32 / 0.04 / 0.14 / -0.07 / 0.29	0.07

The last 3 entries again:

CDR-H1	CDR-H2	CDR-H3	log10 Kd, replicates	mean log10 Kd (nM)
GFTLNMYGIS	VIYSDGKRTEYGDSVK	GRAAGCFCQ	n.d. / n.d. / n.d. / n.d. / n.d. / n.d.	n.d.
GFTLNSYGIS	VIYSDGERTHYGDSVV	GRAAGTFDS	n.d. / n.d. / n.d. / n.d. / n.d. / 1.94	1.94
GFSLNDYGIS	VIYSDGRRTFYGDDVK	GRQAGTFDS	0.33 / -0.32 / 0.04 / 0.14 / -0.07 / 0.29	0.07

The authors averaged sequences with at least three values out of six and counted those with two or fewer as poor binders.
The range of this assay differs from that of the first round, and the authors advise against merging the two.
Nonspecific signal, from three strains lacking the peptide, appeared in 1% of pairings of all heavy chain designs, centred on 2.08 (5% of these signals below 0.84); values are not corrected for it.

From the AlphaSeq antibody data of Li et al. 2023 (doi:10.1038/s41467-023-39022-2), copy in the FLAb collection.